We go through 1 molecule from publication PMC4440699 (MedChemComm, 2014).

Structures are written as SMILES. Like-named read-outs stand apart in the source and are kept apart here.

Test [1] has as its system acetylated H3K9. The conditions noted are these: MV-4-11 cells, Western blot. For orientation: A western blot detects proteins with antibodies after separation by electrophoresis.
The conditions of test [2]: under the same conditions; cited from earlier work.

Regarding `O=C(CCCCCCC(=O)Nc1ccccc1)NO` [SAHA, suberanilohydroxamic acid], the “histone H3K9 acetylation” value in test [1] (0.1 μM) is “moderate H3K9 acetylation”. Further, the “histone H3K9 acetylation” value in test [1] (0.5 μM) is recorded as “promoted histone H3K9 acetylation”. Also, in test [2], the “KA, binding to Zn^++” value is 403 M⁻¹ and the “ΔG, binding to Zn^++” value was -3.59 kcal/mol.
